Results: patent publication US6528630B1 (priority 1997, dated 2003)

The chains behind the UniProt entries cited, without tags or fusion partners. Residues count along the entry.
UniProt Q01668, 10-2161: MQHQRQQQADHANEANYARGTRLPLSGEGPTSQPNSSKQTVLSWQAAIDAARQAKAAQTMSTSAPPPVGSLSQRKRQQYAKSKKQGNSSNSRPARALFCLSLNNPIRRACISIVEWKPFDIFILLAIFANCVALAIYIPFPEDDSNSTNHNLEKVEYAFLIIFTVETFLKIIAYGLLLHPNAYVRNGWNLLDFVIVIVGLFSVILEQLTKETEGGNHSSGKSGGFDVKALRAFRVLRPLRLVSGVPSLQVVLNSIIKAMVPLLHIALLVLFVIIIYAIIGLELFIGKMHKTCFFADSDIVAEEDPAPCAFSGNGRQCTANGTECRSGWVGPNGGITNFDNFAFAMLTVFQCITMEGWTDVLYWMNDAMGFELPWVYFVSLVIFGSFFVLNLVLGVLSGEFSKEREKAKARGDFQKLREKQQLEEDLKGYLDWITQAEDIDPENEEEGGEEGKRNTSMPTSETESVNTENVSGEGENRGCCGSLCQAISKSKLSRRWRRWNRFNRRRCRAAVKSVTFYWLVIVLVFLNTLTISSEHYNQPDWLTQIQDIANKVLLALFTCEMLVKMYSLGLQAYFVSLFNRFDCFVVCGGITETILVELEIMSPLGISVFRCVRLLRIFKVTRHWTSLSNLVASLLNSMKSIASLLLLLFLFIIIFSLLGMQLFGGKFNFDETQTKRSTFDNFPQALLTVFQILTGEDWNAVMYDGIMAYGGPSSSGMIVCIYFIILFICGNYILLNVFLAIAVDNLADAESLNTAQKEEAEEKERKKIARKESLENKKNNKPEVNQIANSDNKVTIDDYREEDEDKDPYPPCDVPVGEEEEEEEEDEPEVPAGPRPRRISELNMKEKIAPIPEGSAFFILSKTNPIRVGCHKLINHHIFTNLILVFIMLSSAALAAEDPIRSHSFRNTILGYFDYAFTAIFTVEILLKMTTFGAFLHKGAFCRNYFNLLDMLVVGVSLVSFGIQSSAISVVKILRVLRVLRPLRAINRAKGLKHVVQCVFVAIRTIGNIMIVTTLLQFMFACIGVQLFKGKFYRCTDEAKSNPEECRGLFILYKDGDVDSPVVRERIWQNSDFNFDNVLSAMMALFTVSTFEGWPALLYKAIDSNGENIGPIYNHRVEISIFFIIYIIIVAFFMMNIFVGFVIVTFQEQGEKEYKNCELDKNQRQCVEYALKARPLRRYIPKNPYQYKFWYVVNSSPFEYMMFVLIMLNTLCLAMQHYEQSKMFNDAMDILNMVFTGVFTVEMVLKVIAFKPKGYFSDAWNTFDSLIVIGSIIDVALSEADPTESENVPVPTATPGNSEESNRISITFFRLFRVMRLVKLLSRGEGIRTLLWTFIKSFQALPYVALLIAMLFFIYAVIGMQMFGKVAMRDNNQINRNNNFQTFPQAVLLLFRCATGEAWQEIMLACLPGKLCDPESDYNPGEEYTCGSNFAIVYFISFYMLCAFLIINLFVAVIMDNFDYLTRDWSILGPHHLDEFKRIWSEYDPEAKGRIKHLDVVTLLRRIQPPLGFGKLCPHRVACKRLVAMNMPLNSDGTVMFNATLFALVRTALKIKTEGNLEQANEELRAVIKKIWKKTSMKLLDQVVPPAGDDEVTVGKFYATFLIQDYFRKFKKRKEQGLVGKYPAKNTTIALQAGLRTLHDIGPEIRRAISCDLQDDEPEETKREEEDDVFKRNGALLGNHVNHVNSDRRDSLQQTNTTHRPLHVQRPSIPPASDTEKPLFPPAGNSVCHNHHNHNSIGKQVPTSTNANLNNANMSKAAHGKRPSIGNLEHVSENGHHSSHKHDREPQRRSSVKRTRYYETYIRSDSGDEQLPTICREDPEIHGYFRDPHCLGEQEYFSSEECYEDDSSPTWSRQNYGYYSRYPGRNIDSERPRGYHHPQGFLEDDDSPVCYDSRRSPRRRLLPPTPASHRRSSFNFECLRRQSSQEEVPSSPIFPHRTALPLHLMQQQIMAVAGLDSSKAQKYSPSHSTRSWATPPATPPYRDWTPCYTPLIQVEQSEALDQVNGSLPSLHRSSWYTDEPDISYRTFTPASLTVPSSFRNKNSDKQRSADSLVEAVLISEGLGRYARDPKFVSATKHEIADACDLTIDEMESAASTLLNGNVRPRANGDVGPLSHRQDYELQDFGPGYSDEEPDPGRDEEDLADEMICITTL

Target: human neuronal calcium channel α1D, α2 and β1 subunits (Homo sapiens, UniProt Q01668)
Type: cell-based
Set-up: expressed in transfected cells; host or cells: Xenopus laevis oocytes injected with in vitro transcripts

C[C@@H](O)[C@@H]1NC(=O)[C@H](Cc2ccc(O)cc2)NC(=O)[C@@H]2C[C@@H](O)CN2C(=O)[C@H](CC(N)=O)NC(=O)[C@@H]2CSSC[C@@H]3NC(=O)[C@H](CO)NC(=O)[C@H](CO)NC(=O)CNC(=O)[C@@H]4C[C@@H](O)CN4C(=O)[C@H](CO)NC(=O)[C@H](CCCCN)NC(=O)[C@@H](N)CSSC[C@H](NC(=O)[C@H](CSSC[C@@H](C(=O)N[C@@H](Cc4ccc(O)cc4)C(N)=O)NC(=O)[C@H](CCCNC(=N)N)NC(=O)[C@H](CCCCN)NC1=O)NC(=O)[C@H](CC(N)=O)NC(=O)[C@H](Cc1ccc(O)cc1)NC(=O)[C@H](CO)NC(=O)[C@H]([C@@H](C)O)NC(=O)[C@@H]1C[C@@H](O)CN1C(=O)[C@H](CO)NC3=O)C(=O)N[C@@H](CCCNC(=N)N)C(=O)N[C@@H](CO)C(=O)N2 [ω-CgTX]
reversibility of block: reversibly
